Experimental data published in patent US20230310372A1 (Amarin Pharmaceuticals Ireland Limited, priority 2013, published 2023).

Assay: Safety and tolerability (treatment-emergent adverse events) in the phase 1 drug-drug interaction study
Conditions: atorvastatin-only group, after Day 7 (so in the source)

With CC(C)c1c(C(=O)Nc2ccccc2)c(-c2ccccc2)c(-c2ccc(F)cc2)n1CC[C@@H](O)C[C@@H](O)CC(=O)O [Atorvastatin, atorvastatin] the “Subjects reporting at least one treatment-emergent adverse event (TEAE)” value was 20%.
